# Target: Tyrosine-protein kinase ABL1 (Homo sapiens, UniProt P00519)
# The chains behind the UniProt entries cited, without tags or fusion partners.
# UniProt P00519, whole entry: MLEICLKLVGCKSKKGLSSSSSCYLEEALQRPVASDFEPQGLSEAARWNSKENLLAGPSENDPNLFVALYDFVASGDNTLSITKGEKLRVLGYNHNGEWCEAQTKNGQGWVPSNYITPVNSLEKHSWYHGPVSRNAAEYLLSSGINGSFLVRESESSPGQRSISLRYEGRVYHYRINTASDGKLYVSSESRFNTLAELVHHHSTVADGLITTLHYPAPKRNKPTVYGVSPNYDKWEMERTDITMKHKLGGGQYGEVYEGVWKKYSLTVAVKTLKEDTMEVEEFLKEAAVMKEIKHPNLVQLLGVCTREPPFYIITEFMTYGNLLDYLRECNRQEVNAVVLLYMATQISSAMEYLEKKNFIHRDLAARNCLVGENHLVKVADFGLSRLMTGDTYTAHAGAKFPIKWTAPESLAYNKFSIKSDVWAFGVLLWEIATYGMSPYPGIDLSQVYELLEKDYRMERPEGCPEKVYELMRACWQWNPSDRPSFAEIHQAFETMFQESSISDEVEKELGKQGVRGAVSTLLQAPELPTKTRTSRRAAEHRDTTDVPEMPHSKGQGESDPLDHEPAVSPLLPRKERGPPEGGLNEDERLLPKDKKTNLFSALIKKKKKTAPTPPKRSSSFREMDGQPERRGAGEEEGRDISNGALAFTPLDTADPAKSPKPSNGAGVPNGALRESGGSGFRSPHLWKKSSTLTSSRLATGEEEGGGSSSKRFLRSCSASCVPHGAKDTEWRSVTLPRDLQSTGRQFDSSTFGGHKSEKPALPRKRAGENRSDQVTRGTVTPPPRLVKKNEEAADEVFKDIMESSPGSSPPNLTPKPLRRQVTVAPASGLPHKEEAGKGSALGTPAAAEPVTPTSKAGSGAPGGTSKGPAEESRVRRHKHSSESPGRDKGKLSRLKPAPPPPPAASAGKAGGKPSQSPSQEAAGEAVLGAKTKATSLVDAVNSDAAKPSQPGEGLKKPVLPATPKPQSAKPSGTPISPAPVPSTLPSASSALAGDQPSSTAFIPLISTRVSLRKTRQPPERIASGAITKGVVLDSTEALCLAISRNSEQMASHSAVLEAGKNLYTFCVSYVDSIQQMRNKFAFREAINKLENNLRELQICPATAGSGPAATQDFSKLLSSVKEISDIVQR
smiles,measurement,value
COc1ccc2cc(-c3nn(C(C)C)c4ncnc(N)c34)ccc2c1,Ki,750 nM

# From ChEMBL document CHEMBL2029213, “Multiple determinants for selective inhibition of apicomplexan calcium-dependent protein kinase CDPK1” (J Med Chem, 2012)
